Measured values: patent US6228889A, “Methods for treatment of conditions associated with lactosylceramide” (priority 1999, dated 2001)

Key:
phospholipase A2 = assay: Phospholipase A2 activity in human PMNs; settings: 10 μmol/L
Mac-1 (CD11b/CD18) = assay: Flowcytometric analysis of Mac-1 expression on PMNs; settings: inhibitor 20 minutes, then 100 nmol/L LacCer 20 minutes; BPB 10 μmol/L

Substance: bromophenacyl bromide
- LacCer induced PL-AZ activity in human PMNs (phospholipase A2): completely abrogated
- effect on LacCer-stimulated Mac-1 upregulation on PMNs (Mac-1 (CD11b/CD18)): completely abrogated

This is a selection: effects in other tests are not listed, and their absence says nothing.
